The assay deals with Carboxylic ester hydrolase (Equus caballus, UniProt Q9N1N9). Put plainly: Cholinesterase Inhibition Assay. The protocol:
The IC50 values were determined using the spectrophotometric Ellman's method. All of the tested compounds were dissolved in 0.01 M DMSO and then diluted in demineralised water to 0.001 M and 0.0001 M. Acetylcholinesterase was obtained from electric eel (Electrophorus electricus L.) and butyrylcholinesterase was fromequine serum. Rivastigmine and galantamine were involved as reference drugs.

Chains of the proteins cited; added tags and fusions are not shown.
UniProt Q9N1N9, whole entry: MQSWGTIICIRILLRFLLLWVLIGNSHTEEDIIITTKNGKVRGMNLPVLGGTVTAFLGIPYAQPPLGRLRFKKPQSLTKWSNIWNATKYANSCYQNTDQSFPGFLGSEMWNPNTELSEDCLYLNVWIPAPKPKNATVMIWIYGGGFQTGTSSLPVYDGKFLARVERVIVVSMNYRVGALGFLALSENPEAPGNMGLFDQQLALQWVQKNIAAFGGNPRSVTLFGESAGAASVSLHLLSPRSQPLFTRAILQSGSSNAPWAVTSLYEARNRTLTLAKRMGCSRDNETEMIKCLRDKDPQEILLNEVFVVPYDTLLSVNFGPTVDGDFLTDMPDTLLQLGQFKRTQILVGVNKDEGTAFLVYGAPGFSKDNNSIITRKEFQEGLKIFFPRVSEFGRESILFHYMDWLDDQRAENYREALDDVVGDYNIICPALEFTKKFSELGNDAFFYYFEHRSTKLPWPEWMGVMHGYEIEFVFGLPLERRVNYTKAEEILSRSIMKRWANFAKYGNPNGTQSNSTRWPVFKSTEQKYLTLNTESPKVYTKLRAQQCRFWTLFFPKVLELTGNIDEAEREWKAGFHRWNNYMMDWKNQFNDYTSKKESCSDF

The text below walks through data of BindingDB's records for doi:10.1016/j.bioorg.2017.02.010 (Charles University, 2017).

Each structure is given as a SMILES string.

One may read the IC50 as the concentration at which inhibition is half-maximal. Low readings indicate greater potency, high ones weaker potency. The molecule `CCN(C)C(=O)Oc1cccc([C@H](C)N(C)C)c1` [3-[(1S)-1-(dimethylamino)ethyl]phenyl N-ethyl-N-methylcarbamate] came in with a half-inhibitory concentration (IC50) of 38.4 µM.
